Our source for the Activity values is ChEMBL document CHEMBL5236581, “A Versatile and Sustainable Multicomponent Platform for the Synthesis of Protein Degraders: Proof-of-Concept Application to BRD4-Degrading PROTACs” (J Med Chem, 2022).

Amino acid sequences for entries named in this document (tags omitted).
UniProt P40337, whole entry, looked up: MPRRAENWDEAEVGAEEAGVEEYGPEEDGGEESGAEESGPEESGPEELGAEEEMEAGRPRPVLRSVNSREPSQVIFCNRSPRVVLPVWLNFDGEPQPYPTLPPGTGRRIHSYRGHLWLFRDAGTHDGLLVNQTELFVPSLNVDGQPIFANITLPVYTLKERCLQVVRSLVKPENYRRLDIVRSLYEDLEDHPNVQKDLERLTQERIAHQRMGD

In this assay the target is von Hippel-Lindau disease tumor suppressor/Bromodomain-containing protein 4 (Homo sapiens) (UniProt O60885+P40337). The experiment in a line: Protac activity at BRD4/VHL E3 ligase in human MDA-MB-231 cells assessed as decrease in BRD4 expression at 1 uM incubated for 4 to 24 hrs by Western blot analysis. As to conditions: time lower 4.0 hrs, time upper […]. The assay is classed as cell-based. In general terms: A western blot detects proteins with antibodies after separation by electrophoresis.

Calls of active or inactive are those of the source. The calls are words filed in the database; no cut-off is given here.

Consider `Cc1ncsc1-c1ccc(CNC(=O)[C@@H]2C[C@@H](O)CN2C(=O)[C@@H](NC(=O)COCCOCCOCCNC(=O)C[C@@H]2N=C(c3ccc(Cl)cc3)c3c(sc(C)c3C)-n3c(C)nnc32)C(C)(C)C)cc1`, for which the outcome was Active.
